{
  "source": "paper PMC10899660",
  "about": "“Global fungal-host interactome mapping identifies host targets of candidalysin” (Nature Communications, 2024)",
  "key": {"[1]": {"test_system": "human ORFeome (n = 13,761)", "assay": "High-throughput enhanced yeast two-hybrid (HT-eY2H) screening of the human ORFeome", "format": "binding", "method": "The screening of potential host gene targets was carried out using our previous protocol with appropriate modification. Briefly, this system is based on the reconstitution of a functional transcription factor for activation of HIS3 reporter in a cycloheximide (CHX)-sensitive manner through the interaction between two proteins: one fused to the DNA-binding domain (DB-X) and the other fused to the activation domain (AD-Y). The entry clone encoding candidalysin or other Ece1 peptides was generated by Gateway cloning and confirmed by variant identity through barcoding and Sanger sequencing. The entry clones were transferred by Gateway LR reactions into the HT-eY2H vector pDEST-AD expressing the yeast Gal4 activation domain fusion proteins (AD-Y). The AD-Y plasmids were then transformed into the haploid yeast Y8930 (MATα), with the genotype leu2–3,112 trp1–901 his3Δ200 ura3–52 gal4Δ gal80Δ GAL2::ADE2 GAL1::HIS3@LYS2 GAL7::lacZ@MET2cyh2^R, and selected on synthetic complete (SC) agar medium without leucine (SC-Leu) to generate Y2H bait strains. The prey strains expressing DB-X were transformed into the yeast Y8800, mating type MATα, with similar genotype as Y8930, and selected on SC medium without tryptophan (SC-Trp). The cells were then mated and spotted onto confirmative, selective and control agar plates including SC-Leu-Trp, SC-Leu-Trp-His and SC-Leu-His+CHX, respectively. PPIs were considered positive for activation of GAL1::HIS3 (i.e., growth to overcome 3AT inhibition) in a CHX-sensitive manner."}, "FaDu cells [2]": {"test_system": "FaDu cells", "assay": "Cytokine secretion (IL-6, G-CSF), FaDu cells", "format": "cell-based", "settings": "10 µM, 12 h", "method": "To examine the damage induced by candidalysin, we treated both FaDu and A549 epithelial cells with synthetic candidalysin peptide.\nSupplementary Fig. 4. Candidalysin induces cell damage and production of\ncytokines, related to Fig. 4.\n(a) LDH release after incubation of FaDu cells with Ece1 peptides.\n(b) LDH release of FaDu cells after treatment with serial dilution concentrations of\n(c) IL-6 expression after incubation with 10 µM Ece1-III within 12h.\n(d) G-CSF expression after incubation with 10 µM Ece1-III within 12h.\nData are presented as mean ± SEM. ns, not significant, *P < 0.05, **P < 0.01, ***P <\n0.001, ****P < 0.0001 as determined by one-way ANOVA test with Tukey correction\n(a, b), unpaired two-tailed Student’s t-test (c, d).\n(1 picture or pasted object on this page, not shown here)"}, "FaDu cells [3]": {"test_system": "FaDu cells", "assay": "Micronucleus test (MNT), FaDu cells", "format": "cell-based", "settings": "10 μM candidalysin, 4 h", "method": "About 3 × 10^5 FaDu cells were seeded into six-well culture plate for 24 h and exposed to either 10 μM candidalysin or 10 μM cisplatinum (micronuclei inductor) or their binary mixtures for 4 h. Cells were washed with fresh PBS and resuspended with fresh MEM medium with 10% FBS and 1% PS. The cells were further cultured for an extra 75 h. After washing with PBS, the treated cells were collected in 15 ml tube and fixed in methanol and acetic acid (3:1, v/v) overnight. The cultures were dropped onto glass slides, which were then stained with Giemsa solution for 5 min, washed with distilled water and dried at room temperature. For each treatment, 2000 cells were counted under ×400 magnification using a light microscope. The micronuclei frequency (MF) was thus calculated by (MN/2000) ×100."}, "FaDu cells [4]": {"test_system": "FaDu cells", "assay": "Co-culture of FaDu cells with C. albicans strains, western blot of CCNH, γ-H2AX and phosphorylated CDK1/2", "format": "cell-based", "settings": "FaDu co-cultured with C. albicans strains", "method": "Cells were lysed with cell lysis buffer (Beyotime, #P0013) on ice for 30 min. The supernatant of cell lysate was then collected in a table-top refrigerated centrifuge at 4 °C and 14,000 × g for 10 min. Protein concentration was determined by Pierce™ BCA Protein Assay Kit (Thermo Scientific™, #23227). Antibodies against the following proteins were used for Western blotting analysis: CCNH antibody (CST,Rabbit Source, Cat#2927, 1:1000 dilution), gama-H2AX antibody (CST, Rabbit Source, Cat#97185, 1:1000 dilution), GAPDH (D16H11) XP® Rabbit mAb (CST, Rabbit Source, Cat#5174 S, 1:1000 dilution), Anti-CDK2 (phospho T160) + CDK1 (phospho T161) antibody (Abcam, Rabbit Source, Cat#EPR17621, 1:1000 dilution), Anti-rabbit IgG, HRP-linked Antibody (CST, Goat Source, Cat#7074, 1:5000 dilution), […] Tag (D6W5B) Rabbit mAb (CST, Rabbit Source, Cat#14793, 1:1000 dilution), GFP (4B10) Mouse mAb (CST, Mouse Source, Cat #2955, 1:1000 dilution), Anti-mouse IgG,HRP-linked antibody (CST, Goat Source, Cat#7076, 1:5000 dilution). […]\nThe wild type (SC5314), ece1Δ/Δ, ece1Δ/Δ+ECE1 and ece1Δ/Δ+ECE1^Δ184-279 C. albicans cells were individually inoculated into YPD broth and grown overnight at 30 °C and were harvested and washed three times with PBS, then counted using a hemocytometer. […]"}, "CHO-K1 cells": {"test_system": "CHO-K1 cells", "assay": "Cell activity assay and cytotoxicity LDH assay, CHO-K1 cells", "format": "cell-based", "method": "Cells were deposited into 96-well plates and incubated at 37 °C with 5% CO2. Prior to the cell damage assay, cells were starved in serum-free medium overnight. Cytotoxicity LDH Assay Kit-WST (Dojindo, #CK12) was applied to determine the lactate dehydrogenase (LDH) activity released from cells that were damaged by candidalysin for 2 h or 4 h according to the manufacturer’s instructions.\nCHO-K1 cells were deposited into 96-well plates and incubated at 37 °C with 5% CO2. Before the viability assay, cells were starved in serum-free F12K medium overnight. Calcein/PI Cell Viability/Cytotoxicity Assay Kit (DOJINDO, C542) was applied to determine the cell viability that were treated by candidalysin for 4 h."}},
  "note": "“Also recorded” adds a separate entry of the source. Where two headings read alike, the source gives them in different places.",
  "data": [
    {"smiles": "CC[C@H](C)[C@H](NC(=O)CNC(=O)[C@H](CCSC)NC(=O)[C@@H](NC(=O)[C@@H](NC(=O)CNC(=O)[C@@H](NC(=O)[C@@H](NC(=O)[C@@H](N)CO)[C@@H](C)CC)[C@@H](C)CC)[C@@H](C)CC)[C@@H](C)CC)C(=O)N[C@@H](CC(C)C)C(=O)NCC(=O)N[C@@H](CC(N)=O)C(=O)N[C@H](C(=O)N1CCC[C@H]1C(=O)N[C@@H](CCC(N)=O)C(=O)N[C@H](C(=O)N[C@H](C(=O)N[C@@H](CCC(N)=O)C(=O)N[C@H](C(=O)N[C@H](C(=O)N[C@@H](CCSC)C(=O)N[C@@H](CO)C(=O)N[C@H](C(=O)N[C@H](C(=O)N[C@@H](CCCCN)C(=O)N[C@@H](C)C(=O)N[C@@H](Cc1ccccc1)C(=O)N[C@@H](CCCCN)C(=O)NCC(=O)N[C@@H](CC(N)=O)C(=O)N[C@@H](CCCCN)C(=O)O)C(C)C)[C@@H](C)CC)[C@@H](C)CC)[C@@H](C)CC)[C@@H](C)CC)C(C)C)[C@@H](C)CC", "note": "[Ece1-III]", "values": [
      {"measurement": "human genes/proteins interacting with the peptide", "setting": "[1]", "value": "PPP2CA, OR7C2, and OR7A10; also recorded: CCNH, GLRX3, and UBXN2B"},
      {"measurement": "number of specific host interactors after removing the overlapped host interactors", "setting": "[1]", "value": 8},
      {"measurement": "number of potential host interactors", "setting": "[1]; human ORFeome n = 13,761", "value": 50},
      {"measurement": "human genes/proteins interacting with the peptide", "setting": "[1]; listed as candidalysin", "value": "IST1, CBWD6, and CBWD2; also recorded: ACD, PPP2CA, UBXN2B, CCNH, CDX1, RB1, SFI1, SPRED2, THPO, SPAG8, NEK6, IST1"},
      {"measurement": "G-CSF secretion", "setting": "FaDu cells [2]", "value": "induced the secretion"},
      {"measurement": "IL-6 secretion", "setting": "FaDu cells [2]", "value": "induced the secretion"},
      {"measurement": "micronucleus formation", "setting": "FaDu cells [3]", "value": "higher incidence of micronucleus formation"},
      {"measurement": "phosphorylation of CDK1/2 (substrate of CAK complex)", "setting": "FaDu cells [4]", "value": "increasing level of phosphorylated CDK1/2"},
      {"measurement": "Cell damage (%)", "setting": "CHO-K1 cells; 10μM, replicate 1", "value": 0.2556, "unit": "%"},
      {"measurement": "Live Cells (%)", "setting": "CHO-K1 cells; 10μM, replicate 1", "value": 99.149, "unit": "%"},
      {"measurement": "Cell damage (%)", "setting": "CHO-K1 cells; 10μM, replicate 2", "value": 2.301, "unit": "%"},
      {"measurement": "Live Cells (%)", "setting": "CHO-K1 cells; 10μM, replicate 2", "value": 99.5607, "unit": "%"},
      {"measurement": "Cell damage (%)", "setting": "CHO-K1 cells; 10μM, replicate 3", "value": 7.209, "unit": "%"},
      {"measurement": "Live Cells (%)", "setting": "CHO-K1 cells; 10μM, replicate 3", "value": 99.6668, "unit": "%"},
      {"measurement": "Cell damage (%)", "setting": "CHO-K1 cells; 10μM, replicate 4", "value": 2.71, "unit": "%"},
      {"measurement": "Live Cells (%)", "setting": "CHO-K1 cells; 10μM, replicate 4", "value": 99.1683, "unit": "%"},
      {"measurement": "Live Cells (%)", "setting": "CHO-K1 cells; 10μM, replicate 5", "value": 99.5551, "unit": "%"},
      {"measurement": "Cell damage (%)", "setting": "CHO-K1 cells; 80μM, replicate 1", "value": 94.1718, "unit": "%"},
      {"measurement": "Live Cells (%)", "setting": "CHO-K1 cells; 80μM, replicate 1", "value": 9.9577, "unit": "%"},
      {"measurement": "Cell damage (%)", "setting": "CHO-K1 cells; 80μM, replicate 2", "value": 91.3088, "unit": "%"},
      {"measurement": "Live Cells (%)", "setting": "CHO-K1 cells; 80μM, replicate 2", "value": 7.472, "unit": "%"},
      {"measurement": "Cell damage (%)", "setting": "CHO-K1 cells; 80μM, replicate 3", "value": 80.6749, "unit": "%"},
      {"measurement": "Live Cells (%)", "setting": "CHO-K1 cells; 80μM, replicate 3", "value": 7.761, "unit": "%"},
      {"measurement": "Cell damage (%)", "setting": "CHO-K1 cells; 80μM, replicate 4", "value": 90.6953, "unit": "%"},
      {"measurement": "Live Cells (%)", "setting": "CHO-K1 cells; 80μM, replicate 4", "value": 17.719, "unit": "%"},
      {"measurement": "cytotoxicity", "setting": "CHO-K1 cells; CHO-K1, 10 μM, 4 h", "value": "not"}
    ]}
  ]
}
